This is an account of results in ChEMBL document CHEMBL2424634, “Synthesis and SAR studies of 5-(pyridin-4-yl)-1,3,4-thiadiazol-2-amine derivatives as potent inhibitors of Bloom helicase” (Bioorg Med Chem Lett, 2013).

Sequences of proteins named here, by UniProt entry; tags and fusion partners are left off. A change or cut given only in a name is not applied to a line headed by its entry.
UniProt P54132: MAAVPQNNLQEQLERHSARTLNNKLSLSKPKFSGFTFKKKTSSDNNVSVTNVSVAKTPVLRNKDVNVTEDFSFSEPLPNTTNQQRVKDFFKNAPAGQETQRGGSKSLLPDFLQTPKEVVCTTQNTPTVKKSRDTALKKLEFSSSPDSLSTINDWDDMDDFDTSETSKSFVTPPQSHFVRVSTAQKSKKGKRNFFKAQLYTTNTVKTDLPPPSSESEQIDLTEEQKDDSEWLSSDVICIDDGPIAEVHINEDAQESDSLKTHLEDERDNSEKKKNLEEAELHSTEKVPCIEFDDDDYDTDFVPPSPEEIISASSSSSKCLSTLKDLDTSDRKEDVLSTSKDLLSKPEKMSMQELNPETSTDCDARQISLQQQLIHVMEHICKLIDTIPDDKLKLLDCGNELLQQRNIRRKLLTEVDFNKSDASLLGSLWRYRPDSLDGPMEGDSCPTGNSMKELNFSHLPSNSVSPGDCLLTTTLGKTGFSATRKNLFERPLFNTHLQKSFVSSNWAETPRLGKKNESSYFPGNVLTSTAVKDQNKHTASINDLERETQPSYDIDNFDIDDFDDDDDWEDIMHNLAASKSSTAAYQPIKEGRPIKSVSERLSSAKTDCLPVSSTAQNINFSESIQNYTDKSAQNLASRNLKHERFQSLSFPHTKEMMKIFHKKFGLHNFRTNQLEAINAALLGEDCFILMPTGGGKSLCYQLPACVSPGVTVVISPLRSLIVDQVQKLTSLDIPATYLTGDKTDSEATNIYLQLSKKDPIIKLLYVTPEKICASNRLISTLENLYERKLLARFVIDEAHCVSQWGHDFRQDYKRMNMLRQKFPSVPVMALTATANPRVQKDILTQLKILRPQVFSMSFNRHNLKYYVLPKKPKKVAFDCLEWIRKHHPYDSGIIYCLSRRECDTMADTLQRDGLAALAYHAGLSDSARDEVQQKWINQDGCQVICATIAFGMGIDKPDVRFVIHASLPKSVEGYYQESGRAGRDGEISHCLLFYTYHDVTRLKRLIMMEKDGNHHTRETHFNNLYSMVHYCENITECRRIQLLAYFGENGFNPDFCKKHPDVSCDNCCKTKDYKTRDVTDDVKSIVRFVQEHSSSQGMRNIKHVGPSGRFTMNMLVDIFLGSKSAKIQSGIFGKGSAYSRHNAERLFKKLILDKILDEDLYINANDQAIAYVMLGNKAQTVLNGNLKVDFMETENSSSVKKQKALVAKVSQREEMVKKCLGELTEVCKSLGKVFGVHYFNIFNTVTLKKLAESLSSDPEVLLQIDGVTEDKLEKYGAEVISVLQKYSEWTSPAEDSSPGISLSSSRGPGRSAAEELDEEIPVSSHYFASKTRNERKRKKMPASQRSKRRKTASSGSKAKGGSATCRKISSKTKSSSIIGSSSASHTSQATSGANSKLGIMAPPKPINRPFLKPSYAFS

pIC50: −log10 of the molar value.

The target in this assay is RecQ-like DNA helicase BLM (Homo sapiens, UniProt P54132). Kind of assay: Inhibition of BLM (unknown origin) by gel-based DNA unwinding assay.

On to `O=C(Nc1ccc(F)c(C(F)(F)F)c1)Nc1nnc(-c2ccncc2)s1`, for which the pIC50 was 5.74.
